Values of other authors, collected in patent EP2527351B1, “Lipophosphonoxins, method of their preparation and use” (priority 2011, dated 2012).

Sequences of proteins named here, by UniProt entry; tags and fusion partners are left off. A change or cut given only in a name is not applied to a line headed by its entry.
UniProt P0A6W3: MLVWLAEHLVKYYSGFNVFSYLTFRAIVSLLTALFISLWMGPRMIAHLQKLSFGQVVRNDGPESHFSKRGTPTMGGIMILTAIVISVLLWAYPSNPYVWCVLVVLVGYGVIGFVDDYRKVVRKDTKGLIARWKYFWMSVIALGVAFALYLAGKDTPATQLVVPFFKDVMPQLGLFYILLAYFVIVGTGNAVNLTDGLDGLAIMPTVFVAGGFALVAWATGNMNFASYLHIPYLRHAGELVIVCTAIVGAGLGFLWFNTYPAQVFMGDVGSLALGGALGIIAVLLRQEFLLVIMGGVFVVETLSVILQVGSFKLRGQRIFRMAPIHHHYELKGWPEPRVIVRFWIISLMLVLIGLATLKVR

Biological target: MraY translocase (Escherichia coli, UniProt P0A6W3)
Details: cited from earlier work

## liposidomycins [LPMs]
  IC50: 0.05 µg/mL
